For 65 compounds, reporter increase results are on record in PubChem BioAssay AID1321 (The Scripps Research Institute Molecular Screening Center, 2008).

Protein sequences, listed by entry. Tags and fused reporters are not part of them. Lines headed by an entry give the natural chain unless they say otherwise; changes in a name come on top.
UniProt P30291: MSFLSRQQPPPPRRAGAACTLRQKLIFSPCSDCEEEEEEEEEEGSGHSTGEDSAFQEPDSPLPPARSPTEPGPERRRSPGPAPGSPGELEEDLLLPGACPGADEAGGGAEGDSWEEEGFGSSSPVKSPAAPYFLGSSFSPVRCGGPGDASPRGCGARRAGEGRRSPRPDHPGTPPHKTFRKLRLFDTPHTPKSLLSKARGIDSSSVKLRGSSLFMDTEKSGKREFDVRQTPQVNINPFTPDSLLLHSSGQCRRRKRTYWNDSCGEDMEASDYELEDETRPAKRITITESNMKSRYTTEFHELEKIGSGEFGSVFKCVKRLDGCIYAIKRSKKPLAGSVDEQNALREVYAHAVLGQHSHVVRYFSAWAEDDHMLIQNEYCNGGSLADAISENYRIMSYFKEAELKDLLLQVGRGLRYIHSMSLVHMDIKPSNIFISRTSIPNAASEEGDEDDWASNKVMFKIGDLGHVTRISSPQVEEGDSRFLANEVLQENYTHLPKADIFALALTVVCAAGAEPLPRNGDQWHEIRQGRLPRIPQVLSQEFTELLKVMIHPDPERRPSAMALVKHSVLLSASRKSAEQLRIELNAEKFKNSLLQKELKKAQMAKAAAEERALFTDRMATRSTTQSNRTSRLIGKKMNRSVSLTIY

Several values for one entry are separate records, joined by “and”; a condition that tells them apart may be missing. Identical values can stand only once. The entries are a selection whose mix differs from that of the whole data set. Activity calls are given as the source filed them.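 Rule for the calls: active = activation above the mean of all tested compounds plus 3 SD, set per screening run (cut at about 8.8% in these data); inactive = the rest.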

The target of the test is Wee1-like protein kinase (Homo sapiens) (UniProt P30291). The experiment in a line: compounds stabilizing Wee1-luciferase fusion – cell-based, HeLa, Wee1K328M-luciferase, luminescence, primary screen (AID 1321).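 Note: cells exposed to compound for 20 h before luminescence read; 0% = DMSO alone and 100% = MG132 at 30 µM.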 The note with it: HeLa Luc-Wee1K328M stability, at 5 µM, active compounds read high, 100% = proteasome inhibitor MG132 effect.
As for `Nc1cc(N)c2nonc2c1[N+](=O)[O-]`, the reporter increase was inactive: -1.04%. The result for `CC(C)CC(=O)NC(Sc1ccc(Cl)cc1)C(Cl)(Cl)Cl` (stereo not given) reads inactive: -2.75%; that for `O=C(NC(Sc1ccncn1)C(Cl)(Cl)Cl)c1ccccc1` (stereo not given), inactive: 1.51%; that for `Cc1c2non([O-])c-2c(C)[n+](=O)[n+]1[O-]`, inactive: -3.42%. In the case of `Oc1ccccc1CNc1ccccn1`, the reporter increase was inactive: 2.04%. The value for `NC(=O)c1cc([N+](=O)[O-])cc([N+](=O)[O-])c1N` was inactive: 5.63%. With `Cc1ccc(N/C(=N/P(=O)(N2CCOCC2)N2CCOCC2)N2CCOCC2)cc1`, the reporter increase was inactive: -2.69%. The result for `Cc1ccc(OP(=O)(Nc2nccs2)Oc2ccc(C)cc2)cc1` reads inactive: -1.13%; that for `COc1ccccc1OP(=O)(Nc1ccc(C)cn1)Oc1ccccc1OC`, inactive: 3.06%; that for `CN1CCCC(OC(=O)C(c2ccccc2)c2ccccc2)C1` (stereo not given), inactive: -2.44%.

As for `Clc1ccc(Cl)c(NC2=NCC(CBr)S2)c1` (stereo not given), the reporter increase is inactive: -0.33%. For `CCN(N=Nc1nonc1N)c1nonc1N`, the reporter increase is inactive: 0.55%. For the compound `Nc1cccc2ccc([As](=O)(O)O)cc12`, the reporter increase was inactive: -0.4%. The result for `CC(=O)Nc1ccc([As](=O)(O)O)cc1` reads inactive: 6.43%; that for `O=C(O)c1ccccc1[As](=O)(O)O`, active: 11.5%; that for `O=P(Nc1nc2ccc(Cl)cc2s1)(c1ccccc1)c1ccccc1`, inactive: -0.26%. The result for `Cc1ccc(NP(=O)(Oc2ccccc2F)Oc2ccccc2F)nc1` reads inactive: -2.88%. As to `Cc1cc(SC(NC(=O)c2ccc(F)cc2)C(Cl)(Cl)Cl)ncn1` (stereo not given), the reporter increase was inactive: -1.11%. The result for `CCOP(=O)(Nc1ccccc1)OCC` reads inactive: -0.84% and inactive: 0.94%; that for `CC(C)(C)C(=O)NC(Sc1ccncn1)C(Cl)(Cl)Cl` (stereo not given), inactive: -1.58%; that for `O=[N+]([O-])c1ncn(CCn2ncnc2[N+](=O)[O-])n1`, inactive: -1.7%. Regarding `O=[N+]([O-])c1cccc(NC2=NCC(CBr)S2)c1` (stereo not given), the reporter increase was inactive: 4.19%. The value for `O=C(O)CNc1ccc([As](=O)(O)O)cc1` was inactive: 2.35%. The result for `O=C(Nc1cc([As](=O)(O)O)ccc1O)c1ccccc1` reads inactive: -3.41%.

Consider `C[N+]1=C2C=CC=CC=C2SC12C([N+](=O)[O-])=CC([N+](=O)[O-])=C[C-]2[N+](=O)[O-]` (stereo not given), for which the reporter increase is inactive: -4.03%. The result for `Nc1ccc([As](=O)(O)c2ccc(N)cc2)cc1` reads inactive: 3.92%; that for `CCN(/C(=N/P(=O)(N1CCOCC1)N1CCOCC1)N1CCOCC1)c1ccc(OC)cc1`, inactive: 1.43%; that for `CN(C)C(=O)OCCc1n(C)cc[n+]1C`, inactive: -1.15%.

`CC(C)=N/N=C(\N)N[N+](=O)[O-]`: the reporter increase was inactive: 1.62%. The result for `CC1CCN(C(=O)Oc2c(Cl)cc(Cl)c3cccnc23)CC1` reads inactive: -1.62%; that for `COc1ccc(C2=NCC(CBr)S2)cc1` (stereo not given), inactive: -2.19%; that for `CC(=O)N1C2C3N(C(C)=O)C1C1N(C(C)=O)C(C(N1C(C)=O)N3C(C)=O)N2C(C)=O`, inactive: -0.85%.

Take `O=[N+]([O-])c1cccc2n[nH]nc12`: the reporter increase was inactive: 0.99%. In the case of `O=[N+]([O-])c1cc([N+](=O)[O-])c(CCNc2ccccc2)c([N+](=O)[O-])c1`, the reporter increase was inactive: 0.25%.

As to `CCc1nc2c(n1)c1c(non1O)c1c2no[n+]1[O-]`, the reporter increase was inactive: -2.6%.

`Cc1ccc(NP(=O)(Oc2ccccc2)Oc2ccccc2)nc1`: the reporter increase is inactive: -0.08%. The result for `O=P(Nc1nccs1)(c1ccccc1)c1ccccc1` reads inactive: 0.93%. The result for `CC(C)C(=O)NC(Sc1ccccc1)C(Cl)(Cl)Cl` (stereo not given) reads inactive: -4.73%; that for `c1nnnn1CCn1cnnn1`, inactive: -0.39%; that for `O=[N+]([O-])c1ncn(CCn2cnc([N+](=O)[O-])n2)n1`, inactive: -2.99%. The result for `CC(=O)NC(SC(=S)N(C)C)C(Cl)(Cl)Cl` (stereo not given) reads inactive: -0.42%; that for `O=[As](O)(c1ccccc1)c1ccc(O)cc1`, inactive: 1.39%. As to `C(Cc1nn[nH]n1)Cc1nn[nH]n1`, the reporter increase is inactive: 2.97%. For the compound `Nc1ccc([As](=O)(O)c2ccc([N+](=O)[O-])cc2)cc1`, the reporter increase was inactive: -1.37%. The result for `O=C(OC1CN2CCC1CC2)c1cccc(Cl)c1` (stereo not given) reads inactive: -0.49%. The value for `O=P(Nc1ccccn1)(c1ccc(Br)cc1)c1ccc(Br)cc1` was inactive: 4.05%; that for `O=P(Nc1nc2ccccc2s1)(c1ccccc1)c1ccccc1` was inactive: -2.44%. The value for `Cc1ccc(OP(=O)(Nc2ccccn2)Oc2ccc(C)cc2)cc1` was inactive: 0.2%. In the case of `CC(=O)NC(SC(=S)N(CC(C)C)CC(C)C)C(Cl)(Cl)Cl` (stereo not given), the reporter increase was inactive: -0.81%. The value for `COC(=O)c1cc2c(s1)N=C(c1ccccc1)N(C)P2(=O)N1CCOCC1` (stereo not given) was inactive: 0.73%; that for `CCC(=O)N1C2C3N(C(=O)CC)C1C1N(C(=O)CC)C(C(N1C(=O)CC)N3C(=O)CC)N2C(=O)CC` was inactive: -1.41%. For `O=c1c2cc([N+](=O)[O-])ccc2[nH]c2c([N+](=O)[O-])cc([N+](=O)[O-])cc12`, the reporter increase was inactive: 0.56%. The value for `CN(C)C(=O)Oc1noc2ccccc12` was inactive: -0.32%; that for `Cc1ccccc1OP(=O)(Nc1ccccn1)Oc1ccccc1C` was inactive: 3.08%; that for `O=C(NC1CCS(=O)(=O)C1)NP(=S)(Oc1ccccc1)Oc1ccccc1` (stereo not given) was inactive: -2.37%. As for `CCNC(=S)/N=C(\N)N[N+](=O)[O-]`, the reporter increase is inactive: -0.43%. The value for `CCOC(=O)NC(Sc1ccccc1)C(Cl)(Cl)Cl` (stereo not given) was inactive: -1.23%; that for `Cc1ccc(NP(=O)(Oc2cccc(C)c2)Oc2cccc(C)c2)nc1` was inactive: 1.12%. The result for `c1ccc(-c2nn[nH]n2)c(-c2nn[nH]n2)c1` reads inactive: -0.08%. For `CC(=O)Nc1ccc(Oc2c([N+](=O)[O-])cc([N+](=O)[O-])cc2[N+](=O)[O-])cc1`, the reporter increase was inactive: -0.29%. The result for `CC(=O)Nc1ccc([As](=O)(O)O)c(O)c1` reads inactive: -1.81%; that for `CCOc1ccc(C2=NCC(CBr)S2)cc1` (stereo not given), inactive: 0.95%; that for `O=P1(Nc2nc3ccc(Cl)cc3s2)COc2ccccc2O1` (stereo not given), inactive: -2.38%. Turning to `CC(C)(C)C(=O)NC(Sc1ccccc1)C(Cl)(Cl)Cl` (stereo not given), the reporter increase is inactive: 0.56%. The value for `CCCOP(=S)(Nc1nc(N)cc(=O)[nH]1)OCCC` was inactive: 0.31%.
